By UniProt entry, the sequences of proteins in these tests, tags left out.
UniProt P20459, whole entry, chain 1 of 3: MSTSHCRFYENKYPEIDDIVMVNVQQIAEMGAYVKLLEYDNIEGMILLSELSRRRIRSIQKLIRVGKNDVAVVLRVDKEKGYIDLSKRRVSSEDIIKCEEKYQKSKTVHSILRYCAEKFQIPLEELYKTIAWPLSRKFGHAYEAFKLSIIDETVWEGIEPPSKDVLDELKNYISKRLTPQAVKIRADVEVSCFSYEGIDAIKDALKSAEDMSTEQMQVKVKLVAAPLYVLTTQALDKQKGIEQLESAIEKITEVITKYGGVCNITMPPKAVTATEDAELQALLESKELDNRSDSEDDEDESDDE

According to publication PMC8633983, “GTP binding to translation factor eIF2B stimulates its guanine nucleotide exchange activity” (iScience, 2021):

Biological target: eIF2 (S. cerevisiae) (UniProt P20459)

eIF2B (wild type, Flag-tagged eIF2Bγ), P14741 1-305; P32502 1-381; P09032 1-578; P12754 1-651; P32501 1-712
K1/2 (eIF2B concentration) of the release of BODIPY-GDP from eIF2 (GEF assay), eIF2B preincubated with unlabeled GTP: 4.2 nM
K1/2 (eIF2B concentration) of the release of BODIPY-GDP from eIF2 (GEF assay), eIF2B without preincubated nucleotide: 5.5 nM
